Results reported in the supplement of paper PMC11246515.

Experiment: total protein half-life in vivo (active degradation + dilution); higher = more stable protein
[1] = E. coli NCM3722 delta-clpP delta-lon delta-hslV, growth: N-lim chemostat, doubling time 6 h
[2] = E. coli NCM3722 delta-clpP, growth: N-lim chemostat, doubling time 6 h
[3] = E. coli NCM3722 delta-hslV, growth: N-lim chemostat, doubling time 6 h
[4] = E. coli NCM3722 delta-lon, growth: N-lim chemostat, doubling time 6 h
[5] = E. coli NCM3722 delta-smpB, growth: N-lim chemostat, doubling time 6 h
[6] = wild type E. coli NCM3722, growth: C-lim chemostat, doubling time 3 h
[7] = wild type E. coli NCM3722, growth: C-lim chemostat, doubling time 6 h
[8] = wild type E. coli NCM3722, growth: C-lim chemostat, doubling time 12 h
[9] = wild type E. coli NCM3722, growth: N-lim chemostat, doubling time 6 h
[10] = wild type E. coli NCM3722, growth: N-lim chemostat, doubling time 12 h
[11] = wild type E. coli NCM3722, growth: P-lim chemostat, doubling time 6 h
[12] = wild type E. coli NCM3722, growth: P-lim chemostat, doubling time 12 h

Sequence: MAGNKPFNKQQAEPRERDPQVAGLKVPPHSIEAEQSVLGGLMLDNERWDDVAERVVADDFYTRPHRHIFTEMARLQESGSPIDLITLAESLERQGQLDSVGGFAYLAELSKNTPSAANISAYADIVRERAVVREMISVANEIAEAGFDPQGRTSEDLLDLAESRVFKIAESRANKDEGPKNIADVLDATVARIEQLFQQPHDGVTGVNTGYDDLNKKTAGLQPSDLIIVAARPSMGKTTFAMNLVENAAMLQDKPVLIFSLEMPSEQIMMRSLASLSRVDQTKIRTGQLDDEDWARISGTMGILLEKRNIYIDDSSGLTPTEVRSRARRIAREHGGIGLIMIDYLQLMRVPALSDNRTLEIAEISRSLKALAKELNVPVVALSQLNRSLEQRADKRPVNSDLRESGSIEQDADLIMFIYRDEVYHENSDLKGIAEIIIGKQRNGPIGTVRLTFNGQWSRFDNYAGPQYDDE [P0ACB0]
- total protein half-life in vivo [1]: 6.14 ± 0.4 h
- total protein half-life in vivo [2]: 6.2 ± 2.1 h
- total protein half-life in vivo [3]: 4.45 ± 0.096 h
- total protein half-life in vivo [4]: 4.64 ± 0.25 h
- total protein half-life in vivo [5]: 4.46 ± 0.18 h
- total protein half-life in vivo [6]: 2.834 ± 0.023 h
- total protein half-life in vivo [7]: 5.5521 ± 0.0032 h
- total protein half-life in vivo [8]: 9.543 ± 0.032 h
- total protein half-life in vivo [9]: 4.44 ± 0.45 h
- total protein half-life in vivo [10]: 7.67 ± 0.26 h
- total protein half-life in vivo [11]: 5.76 ± 0.48 h
- total protein half-life in vivo [12]: 11.9 ± 1.4 h

Sequence: MAKGQSLQDPFLNALRRERVPVSIYLVNGIKLQGQIESFDQFVILLKNTVSQMVYKHAISTVVPSRPVSHHSNNAGGGTSSNYHHGSSAQNTSAQQDSEETE [P0A6X3]
- total protein half-life in vivo [1]: 5.56 ± 0.51 h
- total protein half-life in vivo [2]: 6.21 ± 0.57 h
- total protein half-life in vivo [3]: 5.27 ± 1.6 h
- total protein half-life in vivo [5]: 5.24 ± 0.79 h
- total protein half-life in vivo [6]: 3.33 ± 0.29 h
- total protein half-life in vivo [8]: 13 ± 0.14 h
- total protein half-life in vivo [9]: 6.9 h
- total protein half-life in vivo [10]: 12.3 ± 0.4 h
- total protein half-life in vivo [11]: 4.89 ± 0.06 h
- total protein half-life in vivo [12]: 12.8 ± 2.6 h

Sequence: MTLSPYLQEVAKRRTFAIISHPDAGKTTITEKVLLFGQAIQTAGTVKGRGSNQHAKSDWMEMEKQRGISITTSVMQFPYHDCLVNLLDTPGHEDFSEDTYRTLTAVDCCLMVIDAAKGVEDRTRKLMEVTRLRDTPILTFMNKLDRDIRDPMELLDEVENELKIGCAPITWPIGCGKLFKGVYHLYKDETYLYQSGKGHTIQEVRIVKGLNNPDLDAAVGEDLAQQLRDELELVKGASNEFDKELFLAGEITPVFFGTALGNFGVDHMLDGLVEWAPAPMPRQTDTRTVEASEDKFTGFVFKIQANMDPKHRDRVAFMRVVSGKYEKGMKLRQVRTAKDVVISDALTFMAGDRSHVEEAYPGDILGLHNHGTIQIGDTFTQGEMMKFTGIPNFAPELFRRIRLKDPLKQKQLLKGLVQLSEEGAVQVFRPISNNDLIVGAVGVLQFDVVVARLKSEYNVEAVYESVNVATARWVECADAKKFEEFKRKNESQLALDGGDNLAYIATSMVNLRLAQERYPDVQFHQTREH [P0A7I4]
- total protein half-life in vivo [1]: 5.61 ± 0.27 h
- total protein half-life in vivo [2]: 5 ± 0.27 h
- total protein half-life in vivo [3]: 6.12 ± 0.53 h
- total protein half-life in vivo [4]: 5.41 ± 0.5 h
- total protein half-life in vivo [5]: 5.28 ± 0.19 h
- total protein half-life in vivo [6]: 3.2 ± 0.41 h
- total protein half-life in vivo [7]: 5.83 ± 0.28 h
- total protein half-life in vivo [8]: 11.4 ± 2.5 h
- total protein half-life in vivo [9]: 4.98 ± 0.058 h
- total protein half-life in vivo [10]: 9.18 ± 0.67 h
- total protein half-life in vivo [11]: 6.24 ± 0.84 h
- total protein half-life in vivo [12]: 12.3 ± 3 h

± gives the standard deviation of the averaged measurements.
